{
  "source": "BindingDB's records for doi:10.1021/acsmedchemlett.8b00158",
  "about": "(Utah State University, 2018)",
  "assay": "Inhibition of recombinant human Cx26 expressed in Escherichia coli LB2003 assessed as reduction in cell growth measured after 18 hrs",
  "data": [
    {"smiles": "NC[C@H]1O[C@H](O[C@H]2[C@H](O)[C@@H](O[C@@H]3O[C@H](COCc4ccccc4)[C@@H](OCc4ccccc4)[C@H](N)[C@H]3O)[C@H](N)C[C@@H]2N)[C@H](O)[C@@H](O)[C@@H]1O", "values": [
      {"measurement": "IC50", "result": 7.6, "unit": "µM"}
    ]}
  ]
}
